Like-named read-outs stand apart in the source and are kept apart here.
System: gemcitabine-resistant strain of pancreatic cancer cell line Capan-1 (ATCC Number: HTB-79)
Assay: Gemcitabine-resistant cell growth inhibition test (CellTiter Glo, total cellular ATP)
Conditions: read-out: Growth inhibitory activity IC50 (μmol/L)

Row | Molecule | IC50 (Homo sapiens, CAPAN-1, 72 h) [µmol/L] | IC50 [µmol/L]
1 | CCC(=O)SCCOP(=O)(OCCSC(=O)CC)OC[C@H]1S[C@@H](n2ccc(N)nc2=O)[C@@H](F)[C@@H]1O [Example 9-2-1, ((2R,3S,4S,5R)-5-(4-amino-2-oxopyrimidin-1(2H)-yl)-4-fluoro-3-hydroxytetrahydrothiophen-2-yl)methyl bis(S-propionyl-2-mercaptoethan-1-yl) phosphate] | 2 to 5 | 
2 | CC(C)(C)C(=O)OCOP(=O)(OCOC(=O)C(C)(C)C)OC[C@H]1S[C@@H](n2ccc(N)nc2=O)[C@@H](F)[C@@H]1O [Example 11-2-2, ((2R,3S,4S,5R)-5-(4-amino-2-oxopyrimidin-1(2H)-yl)-4-fluoro-3-hydroxytetrahydrothiophen-2-yl)methyl bis(pivaloyloxymethyl) phosphate] | 2 to 5 | 
3 | (2S)-benzyl 2-(((RS)-(((2R,3S,4S,5R)-5-(4-amino- 2-oxopyrimidin-1(2H)-yl)-4-fluoro- 3-hydroxytetrahydrothiophen-2-yl) methoxy)(2,4-dichlorophenoxy) phosphoryl)amino)propanoale [Example 6-2-4] |  | 5 to 15
4 | (2S)-methyl 2-(((RS)-(((2R,3S,4S,5R)-5-(4-amino- 2-oxopyrimidin-1(2H)-yl)-4-fluoro-3- hydroxytetrahydrothiophen-2-yl) methoxy)(p-tolyloxy)phosphoryl)amino) propanoate [Example 5-2-7] |  | 5 to 15

Source: patent US10385089B2, “Thionucleoside derivative or salt thereof, and pharmaceutical composition” (FUJIFILM Corporation, priority 2014, dated 2019)
